{
  "sequences": {"note": "Amino acid sequences for entries named in this document (tags omitted).", "UniProt P24666, whole entry": "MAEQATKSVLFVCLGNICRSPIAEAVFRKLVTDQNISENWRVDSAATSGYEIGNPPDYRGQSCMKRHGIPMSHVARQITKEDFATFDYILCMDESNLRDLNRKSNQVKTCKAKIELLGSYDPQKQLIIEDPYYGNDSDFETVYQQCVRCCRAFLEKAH"},
  "source": "PubChem BioAssay AID651560",
  "about": "(Sanford-Burnham Center for Chemical Genomics, 2012)",
  "note": "This is a selection; strong and weak results do not stand in their true shares. Some salts and complexes are drawn in separate pieces, as the source files them; their charges need not balance. The source made the active and inactive calls.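 The calls were made as follows: active = compounds that cut the enzyme signal by at least half of the control window in the single-dose screen; inactive = the rest.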",
  "data": [
    {"target": "Low molecular weight phosphotyrosine protein phosphatase (Homo sapiens) (UniProt P24666)", "experiment": "LMPTP phosphatase inhibitors, primary screen, biochemical, fluorescence intensity, uHTS (AID 651560);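 also: plate controls were DMSO wells with enzyme plus substrate for no effect and substrate without enzyme for full effect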", "conditions": "recombinant LMPTP-A, OMFP fluorogenic substrate, at 20 µM, stronger effect = higher value", "summary_of_the_method": "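Test system: LMPTP-A, protein tyrosine phosphatase of low molecular weight; Input: 0.625 nM enzyme; Incubation: 50 min dark incubation at room temperature; Signal: endpoint fluorescence intensity from OMFP dephosphorylation; Read-out basis: % inhibition versus control wells.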", "values": [
      {"smiles": "CP(=O)(Nc1ccc2c(c1)OCCO2)Oc1ccccc1", "note": "(configuration not stated)", "inhibition": "inactive: -3.2%"},
      {"smiles": "O=[N+]([O-])c1cc([N+](=O)[O-])c(C(F)(F)F)c([N+](=O)[O-])c1O", "inhibition": "inactive: -0.741%"},
      {"smiles": "Cc1ccccc1NP(C)(=O)Nc1ccccc1C", "inhibition": "inactive: -1.12%"},
      {"smiles": "CP(=O)(Nc1ccc(SC(F)(F)F)cc1)Oc1ccc(F)cc1", "note": "(configuration not stated)", "inhibition": "inactive: 2.58%"},
      {"smiles": "CCOP(C)(=S)SCC(=O)NC(C)(CC)C(=O)O", "note": "(configuration not stated)", "inhibition": "inactive: -2.95%"},
      {"smiles": "Cc1cc(-c2cccc3ccccc23)c(C)cn1.O=[N+]([O-])c1cc([N+](=O)[O-])c(O)c([N+](=O)[O-])c1", "inhibition": "inactive: -1.36%"},
      {"smiles": "O=[N+]([O-])c1cc([N+](=O)[O-])c(NCC2CCS(=O)(=O)C2)c([N+](=O)[O-])c1", "note": "(configuration not stated)", "inhibition": "inactive: -0.241%"},
      {"smiles": "O=[N+]([O-])c1ccc(OP2(=O)COCCO2)cc1", "note": "(configuration not stated)", "inhibition": "inactive: -1.53%"},
      {"smiles": "Cc1c(C(c2ccc3c(c2)OCO3)c2c(C)n(C)n(-c3ccccc3)c2=O)c(=O)n(-c2ccccc2)n1C.O=[N+]([O-])c1cc([N+](=O)[O-])c(O)c([N+](=O)[O-])c1", "inhibition": "inactive: -0.821%"},
      {"smiles": "COc1ccc(OP(C)(=O)Nc2cccc(Br)c2)cc1", "note": "(configuration not stated)", "inhibition": "inactive: -1.82%"},
      {"smiles": "COc1ccc(NP(C)(=O)Oc2ccccc2OC)cc1", "note": "(configuration not stated)", "inhibition": "inactive: -0.0568%"},
      {"smiles": "CN(C)CCOC(=O)C(O)(c1ccccc1)C1CCCCC1", "note": "(configuration not stated)", "inhibition": "inactive: -0.519%"},
      {"smiles": "CCN(CC)CCCOC(=O)C(O)(c1ccccc1)C1CCCCC1", "note": "(configuration not stated)", "inhibition": "inactive: -1.21%"},
      {"smiles": "Cc1c([N+](=O)[O-])cc([N+](=O)[O-])c(Br)c1[N+](=O)[O-]", "inhibition": "inactive: -0.257%"},
      {"smiles": "CCCCCOc1ccc(NP(C)(=O)Oc2ccc(Cl)cc2Cl)cc1", "note": "(configuration not stated)", "inhibition": "inactive: 3.62%"},
      {"smiles": "O=[N+]([O-])c1cc([N+](=O)[O-])c(OC2CCCCC2O)c([N+](=O)[O-])c1", "note": "(configuration not stated)", "inhibition": "inactive: -1.05%"},
      {"smiles": "CP(=O)(Nc1ccccc1)Oc1ccc(F)cc1", "note": "(configuration not stated)", "inhibition": "inactive: -0.928%"},
      {"smiles": "CCN(CC)CCCNc1ccccc1[N+](=O)[O-].O=[N+]([O-])c1cc([N+](=O)[O-])c(O)c([N+](=O)[O-])c1", "inhibition": "inactive: -4.78%"},
      {"smiles": "COc1ccc(OP(C)(=O)Nc2ccc(SC(F)(F)F)cc2)cc1", "note": "(configuration not stated)", "inhibition": "inactive: 4.15%"},
      {"smiles": "CCOC(=O)c1ccc(NP(C)(=O)Oc2ccc(F)cc2)cc1", "note": "(configuration not stated)", "inhibition": "inactive: -1.44%"},
      {"smiles": "O=C(OCCN1CCN(CCOCc2ccccc2)CC1)C(O)(c1ccccc1)c1ccccc1", "inhibition": "inactive: -3.62%"},
      {"smiles": "O=C(OC1CN2CCC1CC2)c1ccc([N+](=O)[O-])cc1", "note": "(configuration not stated)", "inhibition": "inactive: -2.74%"},
      {"smiles": "COc1ccc2c(c1O)-c1c(O)c(OC)cc3c1[C@H](C2)[N+](C)(C)CC3.O=[N+]([O-])c1cc([N+](=O)[O-])c([O-])c([N+](=O)[O-])c1[O-]", "inhibition": "inactive: -1.72%"},
      {"smiles": "O=[N+]([O-])c1cc([N+](=O)[O-])c(Nc2ccc(Cl)cc2)c([N+](=O)[O-])c1", "inhibition": "inactive: 1.81%"},
      {"smiles": "CC(C)c1ccc(OP(C)(=O)Nc2ccc(SC(F)(F)F)cc2)cc1", "note": "(configuration not stated)", "inhibition": "inactive: 2.32%"},
      {"smiles": "CP(=O)(Nc1ccccc1F)Oc1ccccc1", "note": "(configuration not stated)", "inhibition": "inactive: -0.609%"},
      {"smiles": "Cc1c(NP(C)(=O)Oc2ccc(C(C)C)cc2)c(=O)n(-c2ccccc2)n1C", "note": "(configuration not stated)", "inhibition": "inactive: -0.95%"},
      {"smiles": "O=[N+]([O-])c1cc([N+](=O)[O-])c(Nc2ccccn2)c([N+](=O)[O-])c1", "inhibition": "inactive: 1.52%"},
      {"smiles": "CCc1ccc(OP(C)(=O)O)cc1", "inhibition": "inactive: -3.16%"},
      {"smiles": "CP(=O)(Nc1ccccn1)Oc1ccccc1", "note": "(configuration not stated)", "inhibition": "inactive: -0.93%"},
      {"smiles": "COc1ccccc1OP(C)(=O)Nc1ccc(C)cc1C", "note": "(configuration not stated)", "inhibition": "inactive: 1.08%"},
      {"smiles": "COc1ccccc1OP(C)(=O)Nc1ccc(Br)cc1", "note": "(configuration not stated)", "inhibition": "inactive: -1.88%"},
      {"smiles": "CN(C)CCOC(=O)C(O)(c1ccccc1)C1CCCC1", "note": "(configuration not stated)", "inhibition": "inactive: -1.36%"},
      {"smiles": "COc1ccc(OP(C)(=O)Nc2ccccn2)cc1", "note": "(configuration not stated)", "inhibition": "inactive: -0.255%"},
      {"smiles": "CCCCCCCCCCCCCCCC1C[N+](C)(C)CCOP(C)(=O)O1", "note": "(configuration not stated)", "inhibition": "inactive: -3.25%"},
      {"smiles": "CP(=O)(Nc1ccc(Cl)cc1Cl)Oc1ccccc1", "note": "(configuration not stated)", "inhibition": "inactive: -0.267%"},
      {"smiles": "CP(=O)(OCCOc1ccccc1)OCCOc1ccccc1", "inhibition": "inactive: -0.209%"},
      {"smiles": "O=C1C(O)=C([N+](=O)[O-])C(=O)C(O)=C1[N+](=O)[O-]", "inhibition": "inactive: 22.8%"},
      {"smiles": "Cc1cc(C)cc(OP(C)(=O)Nc2cccc(C(F)(F)F)c2)c1", "note": "(configuration not stated)", "inhibition": "inactive: 1.35%"},
      {"smiles": "COc1ccc(OP(C)(=O)Nc2ccccc2Br)cc1", "note": "(configuration not stated)", "inhibition": "inactive: -1.67%"},
      {"smiles": "COc1ccccc1OP(C)(=O)Nc1ccc(C)c(C)c1", "note": "(configuration not stated)", "inhibition": "inactive: -1.1%"},
      {"smiles": "CP(=O)(OC12CC3CC(CC(C3)C1)C2)OC12CC3CC(CC(C3)C1)C2", "inhibition": "inactive: 1.1%"},
      {"smiles": "CCOC(=O)c1ccc(NP(C)(=O)Oc2ccc(Cl)cc2)cc1", "note": "(configuration not stated)", "inhibition": "inactive: -1.3%"},
      {"smiles": "CP(=O)(Nc1ccc(Cl)cc1)Oc1ccc(F)cc1", "note": "(configuration not stated)", "inhibition": "inactive: -0.374%"},
      {"smiles": "COc1ccccc1OP(C)(=O)Nc1ccccc1Br", "note": "(configuration not stated)", "inhibition": "inactive: -0.459%"},
      {"smiles": "CC(C)(C)c1ccc(OP(C)(=O)O)cc1", "inhibition": "inactive: -0.856%"},
      {"smiles": "CN(C)C(=O)c1c([N+](=O)[O-])cc([N+](=O)[O-])cc1[N+](=O)[O-]", "inhibition": "inactive: 0.847%"},
      {"smiles": "CCN(CC)CC(O)COC(=O)C(O)(c1ccccc1)C1CCCCC1", "note": "(configuration not stated)", "inhibition": "inactive: -1.9%"},
      {"smiles": "COc1ccc(OP(C)(=O)Nc2ccc(Br)cc2)cc1", "note": "(configuration not stated)", "inhibition": "inactive: -1.17%"},
      {"smiles": "CP(=O)(Oc1ccccc1)N1CCOC1=O", "note": "(configuration not stated)", "inhibition": "inactive: -1.18%"},
      {"smiles": "CCc1ccc(OP(C)(=O)Nc2cccnc2)cc1", "note": "(configuration not stated)", "inhibition": "inactive: -0.238%"},
      {"smiles": "COc1ccccc1OP(C)(=O)Nc1c(C)n(C)n(-c2ccccc2)c1=O", "note": "(configuration not stated)", "inhibition": "inactive: -1.62%"},
      {"smiles": "O=C(OCCCN1CCCC1)C(O)(c1ccccc1)C1CCCCC1", "note": "(configuration not stated)", "inhibition": "inactive: -3.21%"},
      {"smiles": "CCOP(C)(=S)SCC(=O)NC(C)C(=O)O", "note": "(configuration not stated)", "inhibition": "inactive: -2.31%"},
      {"smiles": "CCOC(=O)c1ccc(NP(C)(=O)Oc2ccc(OC)cc2)cc1", "note": "(configuration not stated)", "inhibition": "inactive: -0.113%"},
      {"smiles": "O=[N+]([O-])c1cc([N+](=O)[O-])c(O)c([N+](=O)[O-])c1.c1ccc(Oc2ccncc2)cc1", "inhibition": "inactive: -0.595%"},
      {"smiles": "CP(=O)(Nc1ccccn1)Oc1ccc(Cl)cc1", "note": "(configuration not stated)", "inhibition": "inactive: -1.08%"}
    ]}
  ]
}
